Assays:
Type in all cases: cell-based
Rattus norvegicus [1] = species on record: Rattus norvegicus; experiment: Selectivity ratio of IC50 for recombinant rat TRPA1 expressed in HEK293 cells to IC50 for recombinant rat TRPM8 expressed in HEK293 cells
[2] = Selectivity ratio of IC50 for recombinant human TRPV1 expressed in HEK293 cells to IC50 for recombinant rat TRPM8 expressed in HEK293 cells
Rattus norvegicus [3] = species on record: Rattus norvegicus; experiment: Selectivity ratio of IC50 for recombinant rat TRPV2 expressed in HEK293 cells to IC50 for recombinant rat TRPM8 expressed in HEK293 cells
Rattus norvegicus [4] = species on record: Rattus norvegicus; experiment: Selectivity ratio of IC50 for recombinant rat TRPV3 expressed in HEK293 cells to IC50 for recombinant rat TRPM8 expressed in HEK293 cells
Rattus norvegicus [5] = species on record: Rattus norvegicus; experiment: Selectivity ratio of IC50 for recombinant rat TRPV4 expressed in HEK293 cells to IC50 for recombinant rat TRPM8 expressed in HEK293 cells

Row | Compound | Ratio IC50 (Rattus norvegicus [1]) | Ratio IC50 [2] | Ratio IC50 (Rattus norvegicus [3]) | Ratio IC50 (Rattus norvegicus [4]) | Ratio IC50 (Rattus norvegicus [5])
1 | COc1cc(/C=C2\NC(=O)[C@@H]3Cc4c(OC)c(C)c(OC)c(OC)c4[C@@H](c4ccccc4)N3C2=O)c(OC)c(C)c1OC | 23 | 111 | 20 | 55 | > 161
2 | COc1cc2c(cc1OC)[C@H](c1ccccc1)N(C(=O)N1CCc3cc(OC)c(OC)cc3[C@@H]1c1ccccc1)CC2 (racemic) | 20 | 106 | 104 | > 200 | 165
3 | COc1cc2c(cc1OC)[C@H](c1ccc(F)cc1)N(C(=O)N1CCc3cc(OC)c(OC)cc3[C@@H]1c1ccc(F)cc1)CC2 (racemic) | 228 | 951 | 1310 | 1010 | 1340
4 | COc1cc2c(cc1OC)[C@H](c1ccc(Cl)cc1)N(C(=O)N1CCc3cc(OC)c(OC)cc3[C@@H]1c1ccc(Cl)cc1)CC2 (racemic) | 56 | 116 | 128 | > 233 | 189
